Measurements: ChEMBL document CHEMBL1139672, “1,2,3,4-Tetrahydroisoquinolinyl sulfamic acids as phosphatase PTP1B inhibitors” (Bioorg Med Chem Lett, 2006)

Molecular target: T1, Tyrosine-protein phosphatase non-receptor type 1 (Homo sapiens, UniProt P18031)
T1 sequence (P18031 whole entry): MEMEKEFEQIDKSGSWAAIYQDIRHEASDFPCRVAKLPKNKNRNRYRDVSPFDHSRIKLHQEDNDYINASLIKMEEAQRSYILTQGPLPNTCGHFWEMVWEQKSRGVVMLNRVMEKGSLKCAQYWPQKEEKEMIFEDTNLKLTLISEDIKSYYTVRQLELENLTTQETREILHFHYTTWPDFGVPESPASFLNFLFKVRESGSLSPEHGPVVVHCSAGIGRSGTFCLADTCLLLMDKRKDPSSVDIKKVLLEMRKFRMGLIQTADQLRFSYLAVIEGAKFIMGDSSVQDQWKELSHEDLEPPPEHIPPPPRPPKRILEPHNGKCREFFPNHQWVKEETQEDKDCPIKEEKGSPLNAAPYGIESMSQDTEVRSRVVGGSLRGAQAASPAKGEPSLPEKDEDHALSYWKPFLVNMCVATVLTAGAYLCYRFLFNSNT
Test: Inhibition of PTP1B

Question: `CNC(=O)[C@@H]1Cc2ccc(NS(=O)(=O)O)cc2CN1C(=O)CCc1cccc(NS(=O)(=O)O)c1` was tested. Which IC50 did it give?
Answer: 4.8 µM
